# In ChEMBL document CHEMBL5137121, “Spiroisoxazoline Inhibitors of Acetylcholinesterase from Pseudoceratina verrucosa. Quantitative Chiroptical Analysis of Configurational Heterogeneity, and Total Synthesis of (±)-Methyl Purpuroceratate C” (J Nat Prod, 2022):
# Sequences of proteins named here, by UniProt entry; tags and fusion partners are left off. Residues count along the entry.
# UniProt O42275, 24-633 limits assumed: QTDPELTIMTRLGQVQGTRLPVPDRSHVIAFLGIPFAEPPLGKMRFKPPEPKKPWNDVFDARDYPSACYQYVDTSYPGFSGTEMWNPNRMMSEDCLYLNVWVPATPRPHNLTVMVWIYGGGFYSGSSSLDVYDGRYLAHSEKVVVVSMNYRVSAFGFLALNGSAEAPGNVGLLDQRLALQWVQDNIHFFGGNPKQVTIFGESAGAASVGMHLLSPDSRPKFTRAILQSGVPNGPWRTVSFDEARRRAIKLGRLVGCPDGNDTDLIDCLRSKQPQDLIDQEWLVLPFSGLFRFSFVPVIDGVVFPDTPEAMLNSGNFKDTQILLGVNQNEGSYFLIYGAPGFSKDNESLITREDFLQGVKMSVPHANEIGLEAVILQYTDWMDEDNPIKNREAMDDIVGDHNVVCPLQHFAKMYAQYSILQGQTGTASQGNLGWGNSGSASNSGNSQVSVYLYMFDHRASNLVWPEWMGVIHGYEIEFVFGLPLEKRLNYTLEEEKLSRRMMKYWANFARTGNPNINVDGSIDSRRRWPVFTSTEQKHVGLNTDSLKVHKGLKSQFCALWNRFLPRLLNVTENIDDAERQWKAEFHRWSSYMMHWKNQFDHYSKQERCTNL
# UniProt P81908, whole entry, looked up: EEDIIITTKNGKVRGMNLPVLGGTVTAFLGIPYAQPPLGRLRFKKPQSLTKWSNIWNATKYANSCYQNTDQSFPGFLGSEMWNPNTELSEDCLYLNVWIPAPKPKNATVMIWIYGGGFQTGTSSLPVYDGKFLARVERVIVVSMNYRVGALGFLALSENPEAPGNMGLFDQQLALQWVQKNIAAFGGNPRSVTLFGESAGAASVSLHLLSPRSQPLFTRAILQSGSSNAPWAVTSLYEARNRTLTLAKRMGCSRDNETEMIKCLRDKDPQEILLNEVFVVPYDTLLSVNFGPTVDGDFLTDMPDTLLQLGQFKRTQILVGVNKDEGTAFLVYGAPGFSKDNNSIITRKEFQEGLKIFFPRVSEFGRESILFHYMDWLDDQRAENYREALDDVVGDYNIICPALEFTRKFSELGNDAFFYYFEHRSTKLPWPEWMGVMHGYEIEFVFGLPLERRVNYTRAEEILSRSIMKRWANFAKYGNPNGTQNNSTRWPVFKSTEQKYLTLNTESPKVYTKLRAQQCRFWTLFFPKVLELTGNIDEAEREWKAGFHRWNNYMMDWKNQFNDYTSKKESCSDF
# Key:
# Acetylcholinesterase = Acetylcholinesterase (Electrophorus electricus, UniProt O42275)
# Cholinesterase = Cholinesterase (Equus caballus, UniProt P81908)
Structure (SMILES),IC50 (Acetylcholinesterase) [nM],IC50 (Cholinesterase) [nM]
CNCCCOc1c(Br)cc(CCNC(=O)/C(Cc2ccc(OC)c(Br)c2)=N/O)cc1Br,5400,2710
COc1ccc(C/C(=N\O)C(=O)NCCc2cc(Br)c(OCCCN(C)C)c(Br)c2)cc1Br,460,1030
COc1c(Br)cc(C/C(=N\O)C(=O)NCCc2nc(N)[nH]c2C(O)(Cc2cc(Br)c(OC)c(Br)c2)C(=O)NCCc2cnc(N)[nH]2)cc1Br (stereo unspecified),> 100000,14000
